According to patent publication US5811465A, “Composition, device, and method for electrotransport agent delivery” (priority 1997, dated 1998):

Details: 10 mM enhancer in 20% Ethanol; pH 7.30 (ODAA), 7.00 (A3); control = 1.00; 100 μA/cm^2, about 32° C.
Protocol: Human cadaver skin was prepared by first removing about 1 mm thick skin samples with an electric dermatome in the form of strips. The skin strips were placed in polyethylene bags, sealed and placed in a refrigerator at about 4° C. for temporary storage. Prior to use in the electrotransport cell, the skin strips were placed in one-liter beakers containing water at 60° C. for about 90 seconds with gentle stirring. Then, the skin strips were removed and placed onto the absorbent side of a piece of BENCHKOTE™ fabric with the dermis side down. Using flat tipped tweezers to retain the dermis, the epidermis was removed from each strip with a round-tip spatula. Each epidermis, stratum comeum side up, was transferred to a PYREX™ glass tray which was filled with water. […]
Dulbecco's phosphate buffered saline (about 0.15M NaCl with minor amounts of other ions, pH 7.0) was placed in the anodic receptor compartment 44. The skin resistance was calculated from the voltages applied by the galvanostat according to Ohm's law, ie, Rskin =ΔV/i, where ΔV is the potential applied by the galvanostat, and i is the applied current, 126 microamps.
The system was maintained at about 32° C. by a Haake Model D1 heating block/water bath. The cell voltage was monitored over the entire procedure, and then averaged. The skin resistance was calculated from Ohm's law as described above using the measured ΔV. […]

With “octyl-N,N-dimethyl-dodecylamino acetate [ODAA]” the “Normalized Ketoprofen Flux (after 5 hrs)” value was 1.56.
